# Measured values as given in patent publication US10208121B2, “Anti-Axl antagonistic antibodies” (BERGEN TEKNOLOGIOVERFORING AS, priority 2014, dated 2019).
# Test system: A549 tumours
# Assay: A549 NSCLC xenograft in NUDE mice, FV2-GLYMAXX alone or with Erbitux
# Format: in vivo, mouse
# Conditions: i.p. twice weekly for 3 weeks
# Method: FV2-GLYMAXX is a defucosylated antibody with the CDRs and binding specificity of 10G5, but with multiple substitutions in the V-domain framework regions. To evaluate the anti-tumour activity of FV2-GLYMAXX in vivo, we used a mouse xenograft model of human non-small cell lung cancer (NSCLC). The human NSCLC A549 cells (ATCC #CCL-185) A549 cells were propagated in vitro as a monolayer culture in DMEM medium supplemented with 10% FBS, 2 mM L-Glutamine, 100 U/ml penicillin and 100 μg/ml streptomycin, 0.01M HEPES buffer, 0.45% D-(+)-glucose, 1 mM sodium pyruvate. NUDE mice were implanted subcutaneously (s.c.) into the flank with 5×10^6 A549 cells resuspended in serum-free medium/Matrigel (1:1). When the tumour size reached 100 mm^3 (Day 0 in FIG. 18), the animals were randomized and treated either with vehicle (SYNAGIS), Erbitux (20 mg/kg) or FV2-GLYMAXX (15 or 30 mg/kg either alone or in combination. Antibodies were administered by intraperitoneal (i.p.) injections twice weekly for 3 weeks.
substance,measurement,value
cetuximab [Erbitux],significance of single agent effect compared to isotype control (Synagis),statistically not significant
